Inhibition data for 61 compounds are collected here from PubChem BioAssay AID651702 (NMMLSC, 2012).

The list shows a part of the results, in another mix than the full data. Calls of active or inactive are those of the source.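 How the source made its calls: active means inhibition above about 55% (limit read from the data); inconclusive means no clear call, values can overlap the other calls; inactive means the rest.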

This assay is described as follows: LAMP-1 surface exposure blockers, TALL-104 cells – cell-based, flow cytometry, MLPCN library, primary screen (AID 651702). The note with it: TALL-104 LAMP-1 surface exposure, at 10 µM, hits give high values, cells stimulated with thapsigargin and PMA. For orientation: A flow cytometer gives signals particle by particle.
Consider `O=C(NCC1(N2CCOCC2)CCCCC1)c1cc(Br)ccc1Cl`, for which the inhibition was inactive: 1%.

As for `COc1cc(C(=O)NCC2(N3CCOCC3)CCCCC2)cc(OC)c1C`, the inhibition was inactive: -1.6%.

For `CCCCn1nnnc1C(c1ccccc1)N1CCC(n2c(=O)[nH]c3ccccc32)CC1` (stereo unspecified), the inhibition is inactive: -1.5%.

With `O=c1[nH]c2ccccc2n1C1CCN(C(c2ccnc3ccccc23)c2nnnn2C2CCCC2)CC1` (stereo unspecified), the inhibition is inactive: -1.7%.

Turning to `COc1ccc(C(=O)NCC2(N3CCOCC3)CCCCC2)cc1OC`, the inhibition was inactive: 1.4%.

As for `O=c1[nH]c2ccccc2n1C1CCN(C(c2cccs2)c2nnnn2C2CCCCC2)CC1` (stereo unspecified), the inhibition was inactive: -1.6%.

For `N/C(=N\O)c1c(N)no[n+]1[O-]`, the inhibition was inactive: 0.6%.

As to `CCOC(=O)N1CCC(Nc2ccc(C)cc2)CC1`, the inhibition was inactive: 5.6%.

On to `COc1cccc(C(c2nnnn2C(C)(C)C)N2CCC(n3c(=O)[nH]c4ccccc43)CC2)c1OC` (stereo unspecified), for which the inhibition is inactive: 2.1%.

For `CCCCn1nnnc1C(c1cccc(OC)c1OC)N1CCC(n2c(=O)[nH]c3ccccc32)CC1` (stereo unspecified), the inhibition is inactive: 1.3%.

`O=c1[nH]c2ccccc2n1C1CCN(C(c2cccs2)c2nnnn2C2CCCC2)CC1` (stereo unspecified): the inhibition was inactive: -3.5%.

For `O=C(OC1CN2CCC1CC2)C1c2ccccc2C=Cc2ccccc21` (stereo unspecified), the inhibition was inactive: -0.6%.

`CC(C)(C)OC(=O)N1CCC(N(C(=O)c2ccccc2)c2ccc(Cl)cc2)CC1`: the inhibition is inactive: 2.8%.

On to `N#Cc1ccc(C(=O)NCC2(N3CCCCC3)CCCCC2)cc1`, for which the inhibition was inactive: -3.8%.

For `CCCN1CCC(Nc2cc(OC)cc(OC)c2)CC1`, the inhibition is inactive: -1.9%.

Regarding `O=c1[nH]c2ccccc2n1C1CCN(C(c2ccccc2)c2nnnn2C2CCCC2)CC1` (stereo unspecified), the inhibition is inactive: -0.8%.

In the case of `Cc1cc(N(CCCl)CCCl)ccc1C=O`, the inhibition was inactive: -9.9%.

`c1ccc(CN2CCC(Nc3ccccc3)CC2)cc1`: the inhibition is inactive: -0.9%.

Take `CN(C)C1(CNC(=O)c2cccc(C#N)c2)CCCCC1`: the inhibition was inactive: -4.5%.

`CC(C)(C)n1nnnc1C(c1cccc2ccccc12)N1CCC(n2c(=O)[nH]c3ccccc32)CC1` (stereo unspecified): the inhibition is inactive: -0.8%.

For `COc1cc(OC)cc(C(=O)NCC2(N3CCCCC3)CCCCC2)c1`, the inhibition was inactive: -10.9%.

On to `O=c1[nH]c2ccccc2n1C1CCN(C(c2ccnc3ccccc23)c2nnnn2C2CCCCC2)CC1` (stereo unspecified), for which the inhibition is inactive: -0.5%.

On to `CCC(c1nnnn1C1CCCCC1)N1CCC(n2c(=O)[nH]c3ccccc32)CC1` (stereo unspecified), for which the inhibition is inactive: -6.6%.

For `COc1cccc(C(c2nnnn2C2CCCCC2)N2CCC(n3c(=O)[nH]c4ccccc43)CC2)c1OC` (stereo unspecified), the inhibition was inactive: -0.5%.

Consider `CC(=O)N(c1ccccc1)C1CCNCC1`, for which the inhibition was inactive: -11%.

As to `Cc1ccc(NC2(C#N)CCN(Cc3ccccc3)CC2)cc1`, the inhibition is inactive: 1.2%.

Take `Fc1ccccc1NC1CCN(Cc2ccccc2)CC1`: the inhibition is inactive: 5.2%.

For the compound `Cc1ccc(C(=O)NCC2(N3CCCCC3)CCCCC2)o1`, the inhibition is inactive: 3.5%.

`COc1ccc(C(c2nnnn2C2CCCCC2)N2CCC(n3c(=O)[nH]c4ccccc43)CC2)cc1` (stereo unspecified): the inhibition is inactive: 0.5%.

For `CCN1CCC(Nc2cccc(F)c2)CC1`, the inhibition is inactive: 3.7%.

With `CC(C)(C)n1nnnc1C(c1ccnc2ccccc12)N1CCC(n2c(=O)[nH]c3ccccc32)CC1` (stereo unspecified), the inhibition was inactive: -10.9%.

On to `Cc1ccccc1NC1(C#N)CCN(Cc2ccccc2)CC1`, for which the inhibition is inactive: -4.5%.

As to `CN(C)c1ccc(C(=O)NCC2(N3CCCCC3)CCCCC2)cc1`, the inhibition is inactive: -2.5%.

For `Cn1c(=O)[nH]cc(N(CCCl)CCCl)c1=O`, the inhibition was inactive: 5.8%.

Consider `O=C(NCC1(N2CCCCC2)CCCCC1)c1ccco1`, for which the inhibition is inactive: 21.2%.

As for `CN1CCC(Nc2ccc(F)c(Cl)c2)CC1`, the inhibition was inactive: 5%.

Take `CCOc1ncccc1C(=O)NCC1(N2CCOCC2)CCCCC1`: the inhibition was inactive: 6.2%.

On to `O=c1[nH]c2ccccc2n1C1CCN(C(c2cc3ccccc3o2)c2nnnn2C2CCCC2)CC1` (stereo unspecified), for which the inhibition was inactive: -7.8%.

Regarding `CCCOc1ccc(C(=O)NCC2(N(C)C)CCCCC2)cc1`, the inhibition was inactive: 2.8%.

On to `O=C(O)C1(Nc2ccccc2)CCN(Cc2ccccc2)CC1`, for which the inhibition was inactive: 8.7%.

In the case of `NN(c1ccccc1)C1CCN(CCc2ccccc2)CC1`, the inhibition was inactive: 3.4%.

With `CC(C)(C)OC(=O)N1CCC(Nc2ccccc2)CC1`, the inhibition was inactive: -2.5%.

As to `CCC(CO)(C(=O)OC1CN2CCC1CC2)c1ccccc1` (stereo unspecified), the inhibition was inactive: 1.7%.

For the compound `COc1cccc(C(c2nnnn2C2CCCC2)N2CCC(n3c(=O)[nH]c4ccccc43)CC2)c1OC` (stereo unspecified), the inhibition was inactive: -0.9%.

With `COc1cc(OC)cc(C(=O)NCC2(N3CCOCC3)CCCCC2)c1`, the inhibition is inactive: 0.6%.

On to `COc1cccc(C(=O)N(c2cc(C)cc(C)c2)C2CCN(C(=O)OC(C)(C)C)CC2)c1`, for which the inhibition was inactive: 4.7%.

For the compound `CN1CCC(Nc2ccc(Cl)cc2)CC1`, the inhibition is inactive: 7.4%.

Take `CCCCn1nnnc1C(CC)N1CCC(n2c(=O)[nH]c3ccccc32)CC1` (stereo unspecified): the inhibition was inactive: -3.8%.

Regarding `O=C(NCC1(N2CCCCC2)CCCCC1)c1cccs1`, the inhibition is inactive: -3.3%.

Regarding `CCCCn1nnnc1C(c1cccs1)N1CCC(n2c(=O)[nH]c3ccccc32)CC1` (stereo unspecified), the inhibition is inactive: 4.4%.

For the compound `O=C(NCC1(N2CCCCC2)CCCCC1)c1ccc(=O)[nH]c1`, the inhibition was inactive: -3.4%.

Consider `COc1ccc(C(=O)NCC2(N3CCCCC3)CCCCC2)c(OC)c1OC`, for which the inhibition was inactive: -2.6%.

Regarding `CC(C)(C)OC(=O)N1CCC(N(C(=O)c2ccccc2)c2ccc(F)cc2)CC1`, the inhibition was inactive: -4.3%.

Turning to `CCC(c1nnnn1C1CCCC1)N1CCC(n2c(=O)[nH]c3ccccc32)CC1` (stereo unspecified), the inhibition is inactive: -4.7%.

Regarding `COc1ccc(C(=O)NCC2(N3CCCCC3)CCCCC2)cc1`, the inhibition was inactive: -5.2%.

On to `Cc1cccc(NC2(C#N)CCN(Cc3ccccc3)CC2)c1`, for which the inhibition was inactive: -1.2%.

`CSc1ccccc1C(=O)NCC1(N2CCCCC2)CCCCC1`: the inhibition is inactive: 3.9%.

`O=C(NCC1(N2CCOCC2)CCCCC1)c1cc2ccccc2o1`: the inhibition is inactive: -3.4%.

Turning to `Cc1cc(C)cc(N(C(=O)c2ccccc2)C2CCN(C(=O)OC(C)(C)C)CC2)c1`, the inhibition was inactive: 14.7%.

Consider `O=C(NCC1(N2CCCCC2)CCCCC1)c1ccc(Cl)nc1`, for which the inhibition was inactive: 0.6%.

In the case of `O=c1[nH]c2ccccc2n1C1CCN(C(c2ccccc2OC(F)(F)F)c2nnnn2C2CCCCC2)CC1` (stereo unspecified), the inhibition is inactive: -5.9%.

In general, inhibition refers to the drop in the measured response relative to a control, in per cent.
